Values quoted from earlier work as cited in patent US20070207952A1, “Long Acting Biologically Active Conjugates” (priority 2003, published 2007).

Protein sequences, listed by entry. Tags and fused reporters are not part of them. Residues count along the entry.
UniProt P00797, 67-406: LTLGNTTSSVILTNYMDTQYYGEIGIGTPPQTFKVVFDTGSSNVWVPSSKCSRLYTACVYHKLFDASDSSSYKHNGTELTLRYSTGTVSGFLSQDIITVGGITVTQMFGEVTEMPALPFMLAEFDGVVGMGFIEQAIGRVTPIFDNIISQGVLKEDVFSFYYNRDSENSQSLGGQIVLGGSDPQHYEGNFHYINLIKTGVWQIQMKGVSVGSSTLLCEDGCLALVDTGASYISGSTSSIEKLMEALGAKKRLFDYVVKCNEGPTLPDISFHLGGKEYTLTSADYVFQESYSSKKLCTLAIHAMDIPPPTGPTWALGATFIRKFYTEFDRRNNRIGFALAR

Target: T1, Human plasma renin (Homo sapiens, UniProt P00797)
T1 construct: plasma renin
Details: literature values; cited from earlier work

## PHPFHFFVYK
  IC50: 5200 nM
